This test concerns the target Melanocyte-stimulating hormone receptor (Mus musculus, UniProt Q01727). Briefly: In vitro activation of mouse recombinant Melanocortin-1 receptor. The method in brief: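 HEK-293 cells stably expressing the mouse receptor (calcium phosphate transfection, G418 1 mg/mL selection) were transfected with a CRE/β-galactosidase reporter. Lysates were read with ONPG at 37 °C (OD405), normalized to protein (OD595) and forskolin. EC50 came from nonlinear least-squares fitting, duplicate experiments in quadruplet.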

The chains behind the UniProt entries cited, without tags or fusion partners. Where a name states a change or a piece, a line headed by the entry shows the natural chain unless it says otherwise.
UniProt Q01727: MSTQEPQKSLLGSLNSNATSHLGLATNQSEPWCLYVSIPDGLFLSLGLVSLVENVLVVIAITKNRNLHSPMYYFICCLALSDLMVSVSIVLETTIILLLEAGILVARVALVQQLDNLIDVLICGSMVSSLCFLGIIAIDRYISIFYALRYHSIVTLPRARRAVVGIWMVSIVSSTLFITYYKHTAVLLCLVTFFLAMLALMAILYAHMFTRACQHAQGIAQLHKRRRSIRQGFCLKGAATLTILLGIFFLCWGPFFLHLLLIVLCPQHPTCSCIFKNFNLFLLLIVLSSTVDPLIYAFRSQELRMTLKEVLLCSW

SMILES strings stand for the structures.

The term EC50 denotes the concentration giving half of the maximal effect.

For the compound `CC(=O)N[C@H](Cc1cnc[nH]1)C(=O)N[C@H](Cc1ccccc1)C(=O)N[C@@H](CCCNC(=N)N)C(=O)N[C@@H](Cc1c[nH]c2ccccc12)C(N)=O`, the EC50 is 289 nM.

The values above are taken from ChEMBL document CHEMBL1135436, “Structure-activity relationships of the melanocortin tetrapeptide Ac-His-DPhe-Arg-Trp-NH(2) at the mouse melanocortin receptors. 1. Modifications at the His position” (J Med Chem, 2002).
